Here are results for two compounds from patent US9662347B2, “Method for inhibiting the induction of cell death by inhibiting the synthesis or secretion of age-albumin in cells of the mononuclear phagocyte system” (Gachon University of Industry-Academic Cooperation …, priority 2010, dated 2017).

Assay [1] deals with rotenone-mediated neuronal cell death. Kind of assay: Rotenone mouse model, number of neuronal cells in brain tissues (cresyl violet staining). The class given is in vivo. Conditions: rotenone mice.
In assay [2] the test system is TNF-α, IL-1β and AGE-albumin in human macrophages (U937). Kind of assay: Macrophage (U937) model of rheumatoid arthritis, immunoblotting and ELISA. It is filed as cell-based. Conditions: β2-microglobulin 0, 12.5, 25, 50 μg. As for the experimental part: Macrophages (U937) from human lymphoma were cultured in RPMI 1640 (Thermo, 10% FBS (Gibco), 0.1% gentamicin (Gibco), a high concentration of glucose) at 37° C. in a 5% CO2 incubator. Then, the human macrophages (U937) were exposed to β2-microglobulin (Sigma, 50 μg/mL) for 24 hrs to prepare a cell model of arthritis.
Human macrophages (U937) were treated with β2-microglobulin (0 μg, 12.5 μg, 25 μg, 50 μg), after which cell lysates and cell culture media were analyzed for the expression levels of TNF-α and IL-1β and for the synthesis and secretion of AGE-albumin using immunoblotting and ELISA.
In general terms: In western blotting, separated proteins are transferred to a membrane and probed.

Regarding `CC(=O)OCC1=C(C(=O)O)N2C(=O)[C@@H](NC(=O)Cc3cccs3)[C@H]2SC1` [C-21, Cephalothin sodium], the “efficiency, Cephalothin sodium compared with Cefaclor” value in assay [1] (FIG. 40) was “Higher efficiency”. For the same compound, the “number of neurons in the injected region versus the non-injected region” value in assay [1] (predominant recovery in the substantia nigra) is “higher number of neurons”.
For the compound “β2-microglobulin: β2-microglobulin (Sigma), abundantly found in cartilage of rheumatoid arthritis patients”, in assay [2], the “expression levels of TNF-α, IL-1β and AGE-albumin in both cell lysate and cell culture medium” value was “Increased”; the “secreted level of AGE-albumin” value was “increased in a concentration-dependent manner”.
